The assay deals with Mitogen-activated protein kinase 1 (Homo sapiens, UniProt P28482). Put plainly: Inhibition of phosphorylated ERK2 (unknown origin) using myelin basic protein as substrate after 2 hrs in presence of ATP by ADP-glo assay. (ADP-Glo turns the ADP formed in a reaction into a luminescent signal.)

Sequences of proteins named here, by UniProt entry; tags and fusion partners are left off.
UniProt P28482, whole entry: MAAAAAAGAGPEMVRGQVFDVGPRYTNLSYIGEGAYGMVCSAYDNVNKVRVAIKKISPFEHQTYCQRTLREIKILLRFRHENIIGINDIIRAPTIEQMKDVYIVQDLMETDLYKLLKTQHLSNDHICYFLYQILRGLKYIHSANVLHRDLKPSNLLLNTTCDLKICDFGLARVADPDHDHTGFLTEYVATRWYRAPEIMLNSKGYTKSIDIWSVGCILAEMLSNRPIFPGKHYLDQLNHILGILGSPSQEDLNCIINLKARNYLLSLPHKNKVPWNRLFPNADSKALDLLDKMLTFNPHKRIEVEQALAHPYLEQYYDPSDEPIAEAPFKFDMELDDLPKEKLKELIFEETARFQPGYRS

A word on the IC50: it is the concentration that gives 50% inhibition. As to `Nc1n[nH]c2nnc(-c3c(-c4ccccc4)nn4ccccc34)cc12`, the IC50 amounted to 1.2 µM.

The values are drawn from ChEMBL document CHEMBL4033767, “Structure-Guided Strategy for the Development of Potent Bivalent ERK Inhibitors” (ACS Med Chem Lett, 2017).
